Ten molecules from patent publication EP1903056A2, “HLA-A1, -A2 -A3, -A24, -B7, and -B44 tumor associated antigen peptides and compositions” (priority 2002, dated 2004) can be followed below.

One experiment addresses B*4002 (B61) (Homo sapiens, UniProt P01889, A65T/A93T/A95T/D138N/D201E/D98Y/E176V/E204Q/E69K/K202T/N87E/Q56L/Q94N/R180L/S48T/Y33H/Y91S). Nature of the experiment: B44 supertype peptide binding, B*4002.
In another experiment the target is B*4402 (Homo sapiens, UniProt P01889, A223V/A65T/A93T/A95T/D201E/D98Y/E176V/E187L/E204Q/E69K/G107R/H137Y/K202T/L105A/L119I/N104T/N87E/Q56L/Q94N/R106L/R155S/R180D/S101N/S121R/S35A/S48T/T118I/V36M/W191S/Y140D/Y91S). Nature of the experiment: B44 supertype peptide binding, B*4402.
For a further experiment, the target named is B*4501 (Homo sapiens, UniProt P01889, A329T/A65T/A93T/A95T/C349S/D138N/D201E/D98Y/E176V/E187L/E204Q/E69K/H137Y/K202T/L119W/N87E/Q56L/Q94N/R155S/R180D/S121R/S35A/S48T/V127L/V306I/V36M/W191S/Y140L/Y33H/Y91S). Nature of the experiment: B44 supertype peptide binding, B*4501.
A further experiment has as its target B*4001(B60) (Homo sapiens, UniProt P01889, A65T/A93T/A95T/D138N/D98Y/E176V/E69K/N87E/Q56L/Q94N/R180L/S121R/S35A/S48T/T167S/V36M/W171L/Y33H/Y91S). In words: B44 supertype peptide binding, B*4001.
Setting [1] is: HER 2/neu-derived B44 peptides, Table 27, read-out: B* 4002.
Where [2] appears, read: HER 2/neu-derived B44 peptides, Table 27, read-out: B* 4501.
Where [3] appears, read: HER 2/neu-derived B44 peptides, Table 27, read-out: B* 4402.
Where [4] appears, read: HER 2/neu-derived B44 peptides, Table 27, read-out: B* 4001.

Read-outs that look alike come from different tables or passages of the source.

Regarding `CC(C)C[C@H](NC(=O)[C@@H]1CCCN1C(=O)[C@H](C)NC(=O)[C@@H](NC(=O)[C@H](Cc1ccc(O)cc1)NC(=O)CNC(=O)[C@H](CC(=O)O)NC(=O)[C@@H](NC(=O)[C@H](CCC(=O)O)NC(=O)[C@@H](N)CO)[C@@H](C)O)C(C)C)C(=O)N[C@H](C(=O)O)[C@@H](C)O` [compound 469], on B*4002 (B61) (setting [1]), the IC50 is 0.224 µM.
With `CC(C)C[C@H](NC(=O)[C@H](C)NC(=O)[C@@H]1CCCN1C(=O)[C@H](CS)NC(=O)[C@H](Cc1c[nH]cn1)NC(=O)[C@H](CC(C)C)NC(=O)[C@H](CCC(=O)O)NC(=O)[C@@H](N)CS)C(=O)N[C@H](C(=O)O)C(C)C` [compound 504], on B*4002 (B61), the IC50 stood at 0.319 µM.
As to `CC(C)C[C@H](NC(=O)[C@H](C)NC(=O)[C@@H]1CCCN1C(=O)[C@H](CS)NC(=O)[C@H](Cc1c[nH]cn1)NC(=O)[C@H](CC(C)C)NC(=O)[C@H](CCC(=O)O)NC(=O)[C@@H](N)CS)C(=O)N[C@H](C(=O)N[C@H](C(=O)O)[C@@H](C)O)C(C)C` [compound 505], the results for the IC50 on B*4402 and at B*4501 (setting [2]) were 0.933 µM and 1.27 µM, respectively.
On to `CC(C)C[C@H](NC(=O)[C@H](C)NC(=O)[C@@H]1CCCN1C(=O)[C@H](CS)NC(=O)[C@H](Cc1c[nH]cn1)NC(=O)[C@H](CC(C)C)NC(=O)[C@H](CCC(=O)O)NC(=O)[C@@H](N)CS)C(=O)N[C@H](C(=O)N[C@H](C(=O)N[C@@H](Cc1ccc(O)cc1)C(=O)O)[C@@H](C)O)C(C)C` [compound 506], for which the IC50 at B*4001(B60) stood at 3.47 µM; at B*4501, 2.78 µM.
As for `CC[C@H](C)[C@H](NC(=O)[C@H](CCC(=O)O)NC(=O)[C@H](CCC(=O)O)NC(=O)[C@H](CC(C)C)NC(=O)[C@@H](NC(=O)[C@H](CCC(=O)O)NC(=O)[C@@H](N)Cc1ccccc1)[C@@H](C)O)C(=O)N[C@H](C(=O)NCC(=O)N[C@@H](Cc1ccc(O)cc1)C(=O)N[C@@H](CC(C)C)C(=O)O)[C@@H](C)O` [compound 510], the IC50 on B*4402 (setting [3]) is 7.49 µM; at B*4002 (B61) (setting [1]), 0.649 µM.
The corresponding values for `CC(C)C[C@H](NC(=O)CNC(=O)[C@H](CCC(=O)O)NC(=O)CNC(=O)[C@@H](NC(=O)[C@H](CS)NC(=O)[C@H](CCC(=O)O)NC(=O)[C@H](CC(=O)O)NC(=O)[C@H](CCC(=O)O)NC(=O)[C@@H]1CCCN1)C(C)C)C(=O)O` [compound 512] are 6.33 µM and 0.257 µM.
With `CC(C)C[C@H](NC(=O)CNC(=O)[C@H](CCC(=O)O)NC(=O)CNC(=O)[C@@H](NC(=O)[C@H](CS)NC(=O)[C@H](CCC(=O)O)NC(=O)[C@@H](N)CC(=O)O)C(C)C)C(=O)O` [compound 513], the figures for the IC50 at B*4402 (setting [3]), on B*4001(B60) (setting [4]) and on B*4501 (setting [2]) were 0.938 µM, 4.86 µM and 14.2 µM, respectively.
In the case of `CC[C@H](C)[C@H](NC(=O)[C@H](CCC(=O)O)NC(=O)[C@@H](N)CCCCN)C(=O)N[C@@H](CC(C)C)C(=O)N[C@@H](CC(=O)O)C(=O)N[C@@H](CCC(=O)O)C(=O)N[C@@H](C)C(=O)N[C@@H](Cc1ccc(O)cc1)C(=O)O` [compound 516], the IC50 stood at 7.48 µM on B*4402 (setting [3]), 0.921 µM at B*4001(B60) (setting [4]) and 2.65 µM at B*4501 (setting [2]).
The corresponding values for `CC(C)[C@H](NC(=O)[C@H](CCCCN)NC(=O)CNC(=O)CNC(=O)[C@H](CC(=O)O)NC(=O)[C@H](C)NC(=O)[C@H](Cc1c[nH]cn1)NC(=O)[C@H](Cc1ccc(O)cc1)NC(=O)[C@H](CCC(=O)O)NC(=O)[C@@H](N)[C@@H](C)O)C(=O)O` [compound 534] are 2.91 µM, 5.25 µM and 1.57 µM.
With `CSCC[C@H](NC(=O)[C@H](CCC(=O)O)NC(=O)[C@H](C)NC(=O)[C@H](CCCCN)NC(=O)[C@@H](NC(=O)[C@@H](NC(=O)[C@@H]1CCCN1C(=O)[C@H](CCC(=O)O)NC(=O)[C@@H](N)CCCNC(=N)N)C(C)C)[C@@H](C)O)C(=O)N[C@@H](CC(C)C)C(=O)N[C@@H](CCC(=O)O)C(=O)N[C@@H](CO)C(=O)N[C@H](C(=O)O)C(C)C` [compound 699], on B*4002 (B61) (Table 29: MAGE2-derived B44 peptides, read-out: B* 4002), the IC50 stood at 0.605 µM.
